This is a selection; strong and weak results do not stand in their true shares. Inconclusive results are not listed. Activity calls are given as the source filed them. The call rests on the fitted dose curve; in most records, active means well fitted cell-killing curve with a large enough effect; inconclusive means small, poorly fitted or top-dose-only effect, or effect the other way; inactive means flat fitted curve, though single readings scatter.
On the % scale 0 is the no-effect control and ±100 the full control effect; potency means the concentration at half of the fitted maximal effect.

A short description of this experiment: qHTS assay for MDR1-selective chemotherapeutics: Primary screen using the parental adenocarcinoma cell KB-3-1. Further: nearly all actives have a fitted effect of over 60% in size. To be noted: KB-3-1 viability, CellTiter-Glo ATP luminescence, 72 h; series mostly up to 46.1 µM; activity change, negative = cytotoxic: at the top concentration. Summed up:
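72 h, 37 °C compound treatment of KB-3-1 parental cells; CellTiter-Glo added, 10 min, luminescence read. Data corrected against DMSO-only plates and normalized before curve fitting.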
Background: qHTS replaces the single test concentration by a dilution series.
With `O=C(OC1CN2CCC1CC2)c1cccc(Cl)c1` (stereo not given), the “activity change, negative = cytotoxic” value was inactive: 4.71%.
As to `C(Cc1nn[nH]n1)Cc1nn[nH]n1`, the “activity change, negative = cytotoxic” value was inactive: 16.9%.
As for `Nc1ccc([As](=O)(O)c2ccc([N+](=O)[O-])cc2)cc1`, the “activity change, negative = cytotoxic” value is inactive: 10.2%.
As to `O=P(Nc1ccccn1)(c1ccc(Br)cc1)c1ccc(Br)cc1`, the Potency is active: 23.1 µM.
Take `CN(C)C1(CNC(=O)c2ccc(Cl)c(S(N)(=O)=O)c2)CCCCC1`: the “activity change, negative = cytotoxic” value was inactive: 19.1%.
For `COc1ccc(N)c([N+](=O)[O-])c1[N+](=O)[O-]`, the “activity change, negative = cytotoxic” value was inactive: -0.0278%.
With `Nc1ccc(CCCCOc2ccccc2)cc1`, the “activity change, negative = cytotoxic” value is inactive: 0.586%.
Regarding `O=P(Nc1nc2ccccc2s1)(c1ccccc1)c1ccccc1`, the “activity change, negative = cytotoxic” value is inactive: 2.24%.
On to `C[C@H]1OP(=O)(Oc2ccccc2)[C@H](O)[C@H](O)[C@H]1N=[N+]=[N-]` (stereo not given in full), for which the “activity change, negative = cytotoxic” value is inactive: 6.91%.
Consider `Cc1ccc(S(=O)(=O)N(CCCN)CCCc2c(C)nc(N)[nH]c2=O)cc1`, for which the “activity change, negative = cytotoxic” value was inactive: 7.64%.
With `O=P1(Nc2ncccn2)COc2ccccc2OC1`, the “activity change, negative = cytotoxic” value is inactive: -10.3%.
As to `Nc1cccc([As](=O)(O)c2ccccc2)c1`, the “activity change, negative = cytotoxic” value is inactive: 8.59%.
For `Cc1ccc(OCC(=O)OC2CN3CCC2CC3)cc1` (stereo not given), the “activity change, negative = cytotoxic” value is inactive: 1.23%.
As for `O=[As](O)(c1cccs1)c1cccs1`, the “activity change, negative = cytotoxic” value is inactive: 10%.
For the molecule `O=P1(Nc2ccc(Br)cn2)COc2ccccc2OC1`, the “activity change, negative = cytotoxic” value was inactive: 3.08%.
`NS(=O)(=O)c1cccc(NC(=O)COC(=O)C(O)(c2ccccc2)c2ccccc2)c1`: the “activity change, negative = cytotoxic” value was inactive: 0%.
Take `Cc1nn(-c2ccccc2)c2c1P(=O)(N1CCOCC1)N(C)C(c1ccccc1)=N2` (stereo not given): the “activity change, negative = cytotoxic” value was inactive: -4.66%.
For the molecule `CC1CCC(C(C)C)C(OP(=O)(Nc2ccccn2)c2ccccc2)C1` (stereo not given), the Potency was active: 18.4 µM.
`Cc1ccc(C(=O)OC2CN3CCC2CC3)cc1` (stereo not given): the “activity change, negative = cytotoxic” value is inactive: -19.3%.
As for `COc1cc([N+](=O)[O-])ccc1[N+](=O)[O-]`, the “activity change, negative = cytotoxic” value is inactive: -17.3%.
For `CN(C)C1(CNC(=O)c2ccc(S(C)(=O)=O)cc2)CCCCC1`, the “activity change, negative = cytotoxic” value is inactive: -3.17%.
Consider `O=C(/C=C/c1ccccc1)OC1CN2CCC1CC2` (stereo not given), for which the “activity change, negative = cytotoxic” value was inactive: 9.31%.
On the same count and under the same terms, the figure for `CCCC1OP(=O)(Nc2ccccc2)OCC1CC` (stereo not given) is inactive: -0.496%; for `COc1ccccc1CNC(=O)COC(=O)C(O)(c1ccccc1)c1ccccc1` it is inactive: 5.41%.
`CC(C)/C=N\N=C(\N)N[N+](=O)[O-]`: the “activity change, negative = cytotoxic” value was inactive: 9.36%.
For `CN(C(=O)Cc1ccc(Cl)c(Cl)c1)[C@@H]1CCCC[C@H]1N1CCCC1`, the “activity change, negative = cytotoxic” value was inactive: 0%.
`CC1(CBr)Cn2c(nc3ccccc3c2=O)S1` (stereo not given): the “activity change, negative = cytotoxic” value is inactive: -1.01%.
On to `O=P1(Nc2ccccn2)COc2ccccc2OC1`, for which the “activity change, negative = cytotoxic” value is inactive: -1.65%.
On the same count and under the same terms, the figure for `CCOP(=O)(NC(=NC(C)c1ccccc1)NC(C)c1ccccc1)OCC` (stereo not given) is inactive: 2.89%; for `CCOP(=O)(Nc1ccc(C)cn1)OCC` it is inactive: 0%.
Take `CN(CCCl)Cc1cc(Cl)c(NC2=NCCN2)c(Cl)c1`: the “activity change, negative = cytotoxic” value was inactive: -0.16%.
On to `O=P1(N(CCCl)CCCl)NCCC(C(F)(F)F)O1` (stereo not given), for which the “activity change, negative = cytotoxic” value was inactive: 2.02%.
As to `Clc1n[nH]nc1-c1nn[nH][15n]1`, the “activity change, negative = cytotoxic” value was inactive: -0.156%.
On to `CC(C)(C)C(=O)NC(Sc1ncccn1)C(Cl)(Cl)Cl` (stereo not given), for which the “activity change, negative = cytotoxic” value was inactive: 8.02%.
`Cc1ccc(NCCc2c([N+](=O)[O-])cc([N+](=O)[O-])cc2[N+](=O)[O-])cc1`: the “activity change, negative = cytotoxic” value was inactive: -1.17%.
Turning to `Nc1cccc2c([As](=O)(O)O)cccc12`, the “activity change, negative = cytotoxic” value was inactive: -5.93%.
Same read-out and setting: the figure for `CCCOP(=S)(Nc1nc(N)cc(=O)[nH]1)OCCC` is inactive: 1.95%; for `COc1cc(C2NCCC3(OCCO3)C2(C)C)cc(OC)c1OC` (stereo not given) it is inactive: 0.0525%; for `CCOP(=O)(Nc1cccc2ccccc12)OCC` it is inactive: 0.339%.
Consider `O=C(OC1CN2CCC1CC2)c1ccc(Cl)cc1` (stereo not given), for which the “activity change, negative = cytotoxic” value is inactive: -1.94%.
Regarding `O=[As](O)(O)c1cccnc1`, the “activity change, negative = cytotoxic” value was inactive: 9.75%.
Turning to `COc1cc(C(=O)NCC2(N3CCOCC3)CCCCC2)cc(Cl)c1OC(C)C`, the “activity change, negative = cytotoxic” value was inactive: -0.0907%.
On to `CS(=O)(=O)c1ccc(Cl)c(NC(=O)COC(=O)C(O)(c2ccccc2)c2ccccc2)c1`, for which the “activity change, negative = cytotoxic” value was inactive: 26.8%.
`Cc1cccc(OCC(=O)OC2CN3CCC2CC3)c1` (stereo not given): the “activity change, negative = cytotoxic” value was inactive: -0.641%.
`O=[As](O)(c1cccc(O)c1)c1cccc(O)c1`: the “activity change, negative = cytotoxic” value is inactive: 6.96%.
On the same count and under the same terms, the figure for `NC(=O)Nc1ccc([As](=O)(O)O)cc1` is inactive: -5.11%.
Consider `N#CCCN(C(=O)COC(=O)C(O)(c1ccccc1)c1ccccc1)c1ccc(F)cc1`, for which the “activity change, negative = cytotoxic” value is inactive: -3.22%.
As to `CCOP1(=S)c2c(C)nn(CCC#N)c2N=C(c2ccc(F)cc2)N1C` (stereo not given), the “activity change, negative = cytotoxic” value was inactive: 2%.
Take `CN(C(=O)Cc1ccccc1)[C@@H]1CC[C@]2(CCCO2)C[C@H]1N1CCCC1`: the “activity change, negative = cytotoxic” value was inactive: 0%.
Take `O=[N+]([O-])c1ccc2c(c1)nnn2O`: the “activity change, negative = cytotoxic” value was inactive: -5.96%.
As to `CN(C(=O)Cc1ccc(Cl)c(Cl)c1)[C@H]1CC[C@@]2(CCCO2)C[C@@H]1N1CCCC1`, the “activity change, negative = cytotoxic” value is inactive: 0%.
In the case of `CCOP1(=S)c2c(C)nn(CCC#N)c2N=C(c2ccccc2F)N1C` (stereo not given), the “activity change, negative = cytotoxic” value was inactive: 0%.
Regarding `O=P(Nc1nccs1)(Oc1ccccc1)Oc1ccccc1`, the “activity change, negative = cytotoxic” value is inactive: 2.07%.
Regarding `O=P(Nc1nccs1)(c1ccccc1)c1nc2ccccc2s1` (stereo not given), the “activity change, negative = cytotoxic” value was inactive: -4.01%.
As to `CS(=O)(=O)c1cc([N+](=O)[O-])c2no[n+]([O-])c2c1`, the “activity change, negative = cytotoxic” value was inactive: -9.17%.
On the same count and under the same terms, the figure for `Nc1ccccc1[As](=O)(O)c1ccccc1` is inactive: 1.71%; for `O=C(O)COc1ccc([As](=O)(O)O)cc1[N+](=O)[O-]` it is inactive: 5.41%; for `ClCCSc1nnc(-c2cccnc2)o1` it is inactive: 5.74%.
Consider `O=Cc1ccc(NCCCl)cc1`, for which the “activity change, negative = cytotoxic” value is inactive: 6.69%.
Take `COC(=O)C1(C)COP(=O)(N2CCCCCC2)OC1` (stereo not given): the “activity change, negative = cytotoxic” value was inactive: 0.138%.
On to `CC(C)c1ccc(OP(=O)(Nc2ccccn2)Oc2ccccc2F)cc1` (stereo not given), for which the “activity change, negative = cytotoxic” value was inactive: -15%.
As for `CC(C)NC(=O)NP(=O)(Oc1ccccc1)Oc1ccccc1`, the “activity change, negative = cytotoxic” value was inactive: 3.07%.
As to `CCN(CC)C(=S)SC(NC=O)C(Cl)(Cl)Cl` (stereo not given), the Potency is active: 5.17 µM.
As for `O=C(OC1CN2CCC1CC2)c1cccc2[nH]cnc12` (stereo not given), the “activity change, negative = cytotoxic” value was inactive: 4.22%.
Same read-out and setting: the figure for `O=[As](O)(c1ccc(O)cc1)c1ccccc1O` is inactive: 3.52%.
Take `C[As](=O)(O)c1cccc(C(=O)O)c1`: the “activity change, negative = cytotoxic” value is inactive: 2.18%.
Turning to `COc1cc(C(=O)NCC2(N3CCOCC3)CCCCC2)ccc1OCC(C)C`, the “activity change, negative = cytotoxic” value was inactive: -6.56%.
For `[N-]=[N+]=NC1CCCCC1NC(=O)c1cc([N+](=O)[O-])cc([N+](=O)[O-])c1` (stereo not given), the “activity change, negative = cytotoxic” value was inactive: 15.4%.
Regarding `Cc1ccc(OP(=O)(Nc2ccc([N+](=O)[O-])cn2)Oc2ccc(C)cc2)cc1`, the “activity change, negative = cytotoxic” value was inactive: 1.75%.
Take `ClCCN(CCCl)c1ccc(CC2C=CC=C2)cc1`: the “activity change, negative = cytotoxic” value is inactive: 9.84%.
Turning to `O=[N+]([O-])c1cc(Oc2ccc([N+](=O)[O-])cc2C(F)(F)F)cc([N+](=O)[O-])c1`, the “activity change, negative = cytotoxic” value is inactive: -14.6%.
On to `COc1ccc(N/C(=N/P(=O)(N2CCOCC2)N2CCOCC2)N2CCOCC2)cc1`, for which the “activity change, negative = cytotoxic” value was inactive: -1.87%.
With `Cc1c2c(nc3ccccc13)SC(C(Cl)Cl)C2` (stereo not given), the “activity change, negative = cytotoxic” value was inactive: 1.36%.
Take `O=C(OC1CN2CCC1CC2)C12CC3CC(CC(C3)C1)C2` (stereo not given): the “activity change, negative = cytotoxic” value was inactive: -12.9%.
Consider `Cc1cc(=O)[nH]c(N[N+](=O)[O-])n1`, for which the “activity change, negative = cytotoxic” value was inactive: 4.93%.
The same measure, in the same setting: the figure for `O=P1(N(CCCl)CCCl)OCCCN1CCCl` (stereo not given) is inactive: -0.841%; for `O=P1(N(CCCl)CCCl)Nc2ccccc2N1` it is inactive: 2.64%.
Still for that read-out and setting: the figure for `COc1ccc2nc(NP(=O)(c3ccccc3)c3ccccc3)sc2c1` is inactive: 3.91%; for `COc1cc(I)ccc1[As](=O)(O)O` it is inactive: -0.652%; for `O=C(OC1CN2CCC1CC2)c1cccc([N+](=O)[O-])c1` (stereo not given) it is inactive: -0.732%.
For `CCOC(=O)c1ccc(NC(=O)C(C)(CCl)SC)cc1` (stereo not given), the “activity change, negative = cytotoxic” value was inactive: -1.73%.
In the case of `COP1(=S)c2c(C)nn(CCC#N)c2N=C(c2ccc(F)cc2)N1C` (stereo not given), the “activity change, negative = cytotoxic” value is inactive: 3.94%.
Take `COC(=O)C1(C)COP(=O)(N2CCCC2)OC1` (stereo not given): the “activity change, negative = cytotoxic” value is inactive: 6.37%.
Still for that read-out and setting: the figure for `O=C(O)C(=O)c1ccc(N(CCCl)CCCl)cc1` is inactive: 3.04%; for `O=C(COc1ccccc1)OC1CN2CCC1CC2` (stereo not given) it is inactive: 5.78%.
With `O=C(Nc1ccncc1[N+](=O)[O-])c1ccc([N+](=O)[O-])cc1[N+](=O)[O-]`, the “activity change, negative = cytotoxic” value was inactive: -7.76%.
In the case of `CCOC(=O)Nc1cccc([As](=O)(O)O)c1`, the “activity change, negative = cytotoxic” value is inactive: 19%.
Consider `O=P(Nc1ccccn1)(c1cccc2ccccc12)c1cccc2ccccc12`, for which the “activity change, negative = cytotoxic” value is inactive: -15.6%.
For `Cc1cc(SC(NC=O)C(Cl)(Cl)Cl)ncn1` (stereo not given), the “activity change, negative = cytotoxic” value was inactive: 4.52%.
Regarding `O=[N+]([O-])c1ccc(Nc2ccc(Oc3ccc([N+](=O)[O-])cc3[N+](=O)[O-])cc2)c([N+](=O)[O-])c1`, the “activity change, negative = cytotoxic” value was inactive: 4.21%.
Turning to `CCOC(=O)Nc1ccc([As](=O)(O)O)c(O)c1`, the “activity change, negative = cytotoxic” value was inactive: 2.22%.
Consider `O=C(O)C(O)c1ccc(N(CCCl)CCCl)cc1` (stereo not given), for which the “activity change, negative = cytotoxic” value is inactive: -24.2%.
As to `CC1CCNP(=O)(N(CCCl)CCCl)O1` (stereo not given), the “activity change, negative = cytotoxic” value was inactive: -0.376%.
Same read-out and setting: the figure for `COP(=O)(OC)N1CC1c1ccccc1` (stereo not given) is inactive: -10.8%; for `Cc1cc(SC(NC(=O)c2ccccc2)C(Cl)(Cl)Cl)nc(C(C)C)n1` (stereo not given) it is inactive: 11.3%.

For the origin of these results see PubChem BioAssay AID1347075 (National Center for Advancing Translational Sciences (NCATS), 2019).
